Earlier results on one substance are cited in US10689367B2, “Triazole pyridyl compounds as agonists of the APJ receptor” (AMGEN INC., priority 2016, dated 2020).

For this data set the following is noted: in vivo; cited from earlier work.

Regarding Apelin-13, the plasma half-life is under 5 min.
